From the RepoRT retention time repository (doi:10.1016/j.chroma.2015.11.014)

Assay: RP, Agilent ZORBAX Eclipse Plus C18, 150 × 2.1 mm, 3.5 µm, 40 °C, 0.3 mL/min, estimated dead time 1.1 min; A: water + 0.1% formic acid; B: acetonitrile + 0.1% formic acid; gradient (min/%B) 0/2 1/2 2/20 16.5/98 22/98
Conditions: stereoisomer not certain

Work on `CCC[N+](CCC)(CCC)CCC` yielded an LC retention time of 5.57 min.
